# According to patent publication US9522192B2 (EPITECH GROUP S.r.l., priority 2012, dated 2016):
# Assay: Water solubility
substance,measurement,value
N-[2-PEG400-0-carbonyl-oxy-ethyl]-octadecanamide [Example 6],Water solubility,> 10000 µg/mL
